In data set [1] the target is T1, somatostatin receptor 2 (SSTR2) (Homo sapiens, UniProt P30874).
T1 construct: expressed in transfected cells; host or cells: S. cerevisiae CY9434 (wild type) and CY14803 (cav1), plasmid Cp3776
Description: β-galactosidase assay in yeast expressing SSTR2. It counts as cell-based. Conditions: CY14803 (cav1) versus CY9434 (wild type), 2 hours incubation.

Chains of the proteins cited; added tags and fusions are not shown. Lines headed by an entry give the natural chain unless they say otherwise; changes in a name come on top.
UniProt P30874: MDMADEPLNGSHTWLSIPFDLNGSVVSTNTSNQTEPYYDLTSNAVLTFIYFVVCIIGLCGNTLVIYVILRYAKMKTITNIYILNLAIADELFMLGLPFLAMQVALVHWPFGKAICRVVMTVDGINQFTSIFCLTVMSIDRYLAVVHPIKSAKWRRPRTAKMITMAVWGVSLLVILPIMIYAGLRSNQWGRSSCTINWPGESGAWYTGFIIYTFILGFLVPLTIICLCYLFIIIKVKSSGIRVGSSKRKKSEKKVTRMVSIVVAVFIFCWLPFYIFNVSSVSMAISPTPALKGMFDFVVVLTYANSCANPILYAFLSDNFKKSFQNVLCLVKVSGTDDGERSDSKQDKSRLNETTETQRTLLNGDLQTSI
UniProt P32745: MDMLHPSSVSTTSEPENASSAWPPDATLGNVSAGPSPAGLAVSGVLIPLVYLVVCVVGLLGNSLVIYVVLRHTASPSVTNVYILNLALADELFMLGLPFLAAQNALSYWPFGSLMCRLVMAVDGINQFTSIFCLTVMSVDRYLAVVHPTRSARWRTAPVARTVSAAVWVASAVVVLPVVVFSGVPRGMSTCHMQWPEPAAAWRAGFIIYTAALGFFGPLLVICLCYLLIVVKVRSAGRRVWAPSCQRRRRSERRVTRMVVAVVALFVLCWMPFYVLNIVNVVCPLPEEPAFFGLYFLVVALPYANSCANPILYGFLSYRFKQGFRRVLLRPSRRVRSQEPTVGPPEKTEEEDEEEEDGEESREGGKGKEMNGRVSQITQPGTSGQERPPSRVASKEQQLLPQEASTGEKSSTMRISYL

Data set [2] concerns the target SSTR3 receptor (Homo sapiens, UniProt P32745). Nature of the data set: β-galactosidase assay in yeast expressing SSTR3. Conditions: 2 hours incubation.

Regarding somatostatin-14, in data set [1], the “increase of ligand-induced level of β-galactosidase activity in cav1 background” value is 2-3 fold. The “ligand induced stimulation of the pheromone pathway (β-galactosidase activity)” value in data set [2] (cav1 background (CY14803)) amounted to 2 fold. Further, the “ligand-induced β-galactosidase activity” value in data set [2] (wild type (CY9434)) is “negligible increase”.

The values are drawn from patent US6251605A, “Yeast cells having mutations in Cav1 and uses therefor” (priority 1999, dated 2001).
